Two compounds from ChEMBL document CHEMBL5634119, “Design and synthesis of 4th generation EGFR inhibitors against human triple (Del19/T790M/C797S) mutation” (Eur J Med Chem, 2023) can be followed below.

The nature of this assay: Selectivity index, ratio of IC50 for inhibition of EGFR del19/T790M/C797S triple mutant in mouse BAF3 cells assessed as reduction in cell proliferation to IC50 for inhibition of wild type EGFR in mouse BAF3 cells assessed as reduction in cell proliferation. It is filed as cell-based.

Take `CN1CCN(c2ccc(Nc3nc(Nc4ccccc4N(C)S(C)(=O)=O)c4cc[nH]c4n3)cc2F)CC1`: the Ratio IC50 was determined as 11.9.
On to `CN1CCN(c2ccc(Nc3nc(Nc4ccccc4N(C)S(C)(=O)=O)c4cc[nH]c4n3)cc2)CC1`, for which the Ratio IC50 is 4.2.
